Source: PMC11678766, “Identification of Novel Inhibitors of Starch Excess 4 (SEX4)” (Life, 2024)

Target: T1, SEX4 (Arabidopsis thaliana, UniProt Q9FEB5)
T1 construct: gift from Dr. Gentry's group, University of Kentucky College of Medicine
T1 sequence (Q9FEB5 90-379 limits assumed): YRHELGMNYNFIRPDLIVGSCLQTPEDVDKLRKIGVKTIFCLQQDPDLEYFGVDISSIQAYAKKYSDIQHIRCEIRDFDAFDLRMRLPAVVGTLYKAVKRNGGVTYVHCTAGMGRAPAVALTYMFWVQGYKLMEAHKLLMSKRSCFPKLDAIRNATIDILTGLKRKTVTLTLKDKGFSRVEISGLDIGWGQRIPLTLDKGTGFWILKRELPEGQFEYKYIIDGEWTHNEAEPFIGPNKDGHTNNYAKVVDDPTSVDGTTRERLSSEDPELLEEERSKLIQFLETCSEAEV
Experiment: Phosphatase assay against amylopectin, SEX4
Type: biochemical
Conditions: comparison of IC50 values for SEX4 and LSF2
Protocol: The Arabidopsis thaliana SEX4 lacking the first 89 amino acids (Δ89-SEX4) and LSF2 proteins were kindly provided by Dr. Gentry’s group at the University of Kentucky College of Medicine (Lexington, KY, USA). para-nitrophenyl phosphate disodium salt hexahydrate (pNPP), Malachite green oxalate salt, ammonium molybdate tetrahydrate, and amylopectin from potato starch were purchased from Sigma-Aldrich. Absorbance was measured on a Beckman Coulter (Brea, CA, USA) DU 700 Series UV/Vis Spectrophotometer.
The phosphatase activity of SEX4 or LSF2 toward amylopectin in the absence or presence of an inhibitor was measured in a reaction mixture with 2 μg SEX4 or LSF2 at 37 °C in 20 μL volume. […] The release of free inorganic phosphate was determined by measuring the absorbance at 620 nm and the K2HPO4 standard curve.
The steady-state kinetic parameters were determined by varying substrate concentrations (pNPP 0.5–50 mM; amylopectin 5–45 μg) with or without an inhibitor. […] Inhibition constants (Ki) and inhibition types were determined by varying substrate concentrations in the absence of an inhibitor and in the presence of an inhibitor at the IC50 concentration. […]
The IC50 values were calculated directly from regression curves using GraphPad PRISM software. […]

Selectivity between SEX4 and LSF2: selective for SEX4
Structure (SMILES): CCCCCC/C=C\CCCCCCCc1cccc(O)c1C(=O)O [Compound F05, Ginkgolic acid]
